The values below come from PubChem BioAssay (Tox21).

By UniProt entry, the sequences of proteins in these tests, tags left out.
UniProt Q96RI1, whole entry: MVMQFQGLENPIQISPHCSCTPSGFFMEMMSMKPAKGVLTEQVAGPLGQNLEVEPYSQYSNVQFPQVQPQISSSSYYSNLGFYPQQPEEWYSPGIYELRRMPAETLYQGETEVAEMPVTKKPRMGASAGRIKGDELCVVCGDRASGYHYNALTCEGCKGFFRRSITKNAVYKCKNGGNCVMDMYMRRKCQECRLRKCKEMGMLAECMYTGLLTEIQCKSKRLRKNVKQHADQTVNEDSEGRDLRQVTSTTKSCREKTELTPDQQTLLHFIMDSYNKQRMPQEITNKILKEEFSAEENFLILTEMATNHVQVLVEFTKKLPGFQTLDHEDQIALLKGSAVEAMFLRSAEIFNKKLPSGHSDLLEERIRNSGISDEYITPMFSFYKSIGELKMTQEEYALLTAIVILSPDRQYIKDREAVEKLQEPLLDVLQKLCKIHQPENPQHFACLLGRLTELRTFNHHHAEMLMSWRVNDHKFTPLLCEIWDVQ

Where “and” joins values, the source holds several entries; their conditions need not be identical. Identical values can stand only once. This is a selection; strong and weak results do not stand in their true shares. Inconclusive results are not listed. Calls of active or inactive are those of the source. Unless noted, calls follow the shape of the dose curve; as a rule, active = well fitted curve in the direction sought with a large enough effect in the repeat runs; inconclusive = weak or mixed curves; inactive = no such curve, though single readings can be large; an effect the other way counts as inactive or inconclusive.

Test [1] in a line: qHTS assay to identify small molecule antagonists of the peroxisome proliferator-activated receptor gamma (PPARg) signaling pathway - cell viability counter screen (AID 743194). Also: nearly all actives have a fitted effect of over 55% in size. The settings on record: PPARg-bla HEK293H viability, CellTiter-Glo luminescence, 17 h, co-treated with 50 nM rosiglitazone. The method in brief: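 PPARg-UAS-bla HEK293H cells were plated, rested 5 h at 37 C, then treated with compounds plus rosiglitazone (50 nM final) for 17 h at 37 C; viability was then read by CellTiter-Glo luminescence after 30 min at room temperature.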
In general terms: qHTS replaces the single test concentration by a dilution series.

Test [2] in a line: qHTS assay for small molecule agonists of the antioxidant response element (ARE) signaling pathway (AID 743202; active = well fitted activation curve with a large enough effect in the signal ratio in the repeat runs, not every such curve was filed as active; the % refers to the signal ratio; also: potency is read from the fitted curve at half-maximal effect). The settings on record: HepG2 ARE-bla reporter, beta-lactamase FRET, 16 h; series mostly up to 73.3 µM. The method in brief:
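Read-out: LiveBLAzer B/G FRET substrate fluorescence after 2 h at room temperature, following 16 h compound treatment at 37 C of HepG2 cells carrying an ARE-driven beta-lactamase reporter.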

A short description of test [3]: qHTS assay for small molecule agonists of the antioxidant response element (ARE) signaling pathway - cell viability counter screen (AID 743203; calls by dose curve; also: nearly all actives have a fitted effect of over 55% in size). The settings on record: ARE-bla HepG2 viability, CellTiter-Glo luminescence, 16 h. The gist of the method:
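Compounds in DMSO were pinned onto ARE-bla HepG2 cells plated 5 hrs earlier at 2,000 cells/well. Sixteen hours later at 37C/5% CO2, CellTiter-Glo was added and luminescence measured after 30 min at room temperature.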

Test [4] can be described thus: qHTS assay for small molecule activators of the heat shock response signaling pathway - cell viability counter screen (AID 743209). Also: nearly all actives have a fitted effect of over 50% in size. The settings on record: HSE-bla HeLa viability, CellTiter-Glo luminescence, 5 h. The method in brief:
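Counter screen for cytotoxicity in HeLa HSE-bla reporter cells. Treatment was 5 h at 37 C; viability was detected by luminescent ATP assay (CellTiter-Glo) in the same wells as the beta-lactamase read.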

Test [5] can be described thus: qHTS assay for small molecule activators of the heat shock response signaling pathway (AID 743210; active = well fitted activation curve with a large enough effect in the signal ratio in the repeat runs, with a control signal flat, not every such curve was filed as active; the % refers to the signal ratio). The settings on record: HeLa HSE-bla reporter, beta-lactamase ratio, 5 h. The gist of the method: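 HSE-bla HeLa cells (beta-lactamase reporter under heat shock response elements) were exposed to compounds for 5 h at 37 C, then loaded with LiveBLAzer B/G FRET substrate for 2.5 h at room temperature before fluorescence reading.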

A short description of test [6]: qHTS assay to identify small molecule agonists of the peroxisome proliferator-activated receptor delta (PPARd) signaling pathway - cell viability counter screen (AID 743211). Also: nearly all actives have a fitted effect of over 55% in size. The settings on record: PPARd-bla HEK293H viability, CellTiter-Glo luminescence, 17 h. The method in brief: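 Viability was measured as CellTiter-Glo luminescence (30 min, room temperature) in the same wells as the beta-lactamase readout. GeneBLAzer PPARd UAS-bla HEK293H cells received compound after 5 h plating and were incubated 17 h at 37 C.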

Test [7] is described as follows: qHTS assay to identify small molecule antagonists of the peroxisome proliferator-activated receptor delta (PPARd) signaling pathway - cell viability counter screen (AID 743213). Also: nearly all actives have a fitted effect of over 50% in size. The settings on record: PPARd-bla HEK293H viability, CellTiter-Glo luminescence, 17 h. The method in brief:
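PPARd-bla HEK293H cells were treated with compounds plus agonist L165041 (300 nM final) for 17 h at 37 C. Viability was then read in the same wells by CellTiter-Glo luminescence after 30 min at room temperature.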

Test [8] can be described thus: qHTS assay to identify small molecule agonists of the farnesoid-X-receptor (FXR) signaling pathway - cell viability counter screen (AID 743218). Also: nearly all actives have a fitted effect of over 45% in size. The settings on record: FXR-bla HEK293T viability, CellTiter-Glo luminescence, 16 h. The gist of the method: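 After 16 h at 37 C with test compounds, FXR-bla HEK 293T cells were given LiveBLAzer B/G substrate for 2 h at RT and then CellTiter-Glo; luminescence was taken after 30 min.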

Test [9] addresses Bile acid receptor (Homo sapiens) (UniProt Q96RI1). Put plainly: qHTS assay to identify small molecule antagonists of the farnesoid-X-receptor (FXR) signaling pathway (AID 743217; active = well fitted inhibition curve with a large enough effect in the signal ratio in the repeat runs, not every such curve was filed as active; the % refers to the signal ratio). The settings on record: HEK293T FXR-UAS-bla, beta-lactamase ratio, CDCA-stimulated, 16 h; at 62.6 µM (top of the series). The method in brief: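 In this cell-based antagonist screen, inhibition of CDCA-driven (50 uM final) UAS-beta-lactamase expression in HEK 293T cells was measured by FRET fluorescence following 16 h compound exposure at 37 °C.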

Test [10] has the same target. Nature of the test: qHTS assay to identify small molecule agonists of the farnesoid-X-receptor (FXR) signaling pathway (AID 743220; active = well fitted activation curve with a large enough effect in the signal ratio in the repeat runs, not every such curve was filed as active; the % refers to the signal ratio). The settings on record: HEK293T FXR-UAS-bla, beta-lactamase FRET ratio, 16 h; at 62.6 µM (top of the series).
% is scaled to controls: 0 for no effect and ±100 for the full control effect.

Regarding `COP(C)(=O)OC`, the activity change, negative = cytotoxicity in test [1] (at 62.6 µM (top of the series)) was inactive: 12.8%; in [1] (at 81.1 µM (top of the series)), inactive: 1.67%; in test [4] (at 62.6 µM (top of the series)), inactive: 3.33%; in test [4] (at 81.1 µM (top of the series)) it was inactive: 1.47%; in test [6] (at 62.6 µM (top of the series)), inactive: -8.97%; in test [6] (at 81.1 µM (top of the series)), inactive: 0.578%. The Potency entry in test [2] is “inactive”. For the same molecule, the viability change, negative = cytotoxic was inactive: -0.218% in test [3] (at 73.3 µM (top of the series)); inactive: -2.43% in test [3] (at 94.8 µM (top of the series)); inactive: -1.43% in [7] (at 80.4 µM (top of the series)); inactive: -0.304% in test [8] (at 62.6 µM (top of the series)); inactive: -1.47% in [8] (at 81.1 µM (top of the series)). For the same molecule, the activation was inactive: 3.76% in test [5] (at 62.6 µM (top of the series)) and inactive: -1.08% in test [5] (at 81.1 µM (top of the series)).

On to `[NH4+].[O-][Cl+3]([O-])([O-])[O-]`, for which the activity change, negative = cytotoxicity in test [1] (at 62.6 µM (top of the series)) is inactive: -25.3%; in test [1] (at 81.1 µM (top of the series)) it was inactive: 26.5%; in test [4] (at 62.6 µM (top of the series)), inactive: 2.98%; in [4] (at 81.1 µM (top of the series)) it was inactive: 2.5%; in [6] (at 62.6 µM (top of the series)) it was inactive: -7.03%; in test [6] (at 81.1 µM (top of the series)) it was inactive: -14%. Further, the Potency entry in test [2] is “inactive”. The viability change, negative = cytotoxic in [3] (at 94.8 µM (top of the series)) is inactive: 3.99%; in test [7] (at 62 µM (top of the series)), inactive: 1.37%; in [7] (at 80.4 µM (top of the series)) it was inactive: 4.04%; in test [8] (at 62.6 µM (top of the series)), inactive: 17.1%; in test [8] (at 81.1 µM (top of the series)), inactive: 8.91%. In addition, the activation in test [5] (at 62.6 µM (top of the series)) is inactive: -1.51%; in test [5] (at 81.1 µM (top of the series)) it was inactive: -0.637%.

As for `CP(=O)(O)OCCC[Si](O)(O)O`, the activity change, negative = cytotoxicity in test [1] (at 62.6 µM (top of the series)) is inactive: 1.09%; in test [4] (at 62.6 µM (top of the series)), inactive: -7.32%; in test [6] (at 62.6 µM (top of the series)), inactive: 9.22%. Besides, the Potency result in test [2] was “inactive”. Moreover, the viability change, negative = cytotoxic is inactive: 0.568% in [3] (at 73.3 µM (top of the series)), inactive: -0.39% in test [7] (at 62 µM (top of the series)) and inactive: 0.719% in [8] (at 62.6 µM (top of the series)). In addition, the activation in [5] (at 62.6 µM (top of the series)) was inactive: -1.29%; in test [10], inactive: -0.628%. Also, the activity change, negative = inhibition in test [9] is inactive: 5%.

For `Cc1cccc([N+](=O)[O-])c1[N+](=O)[O-]`, the viability change, negative = cytotoxic in [3] (at 73.3 µM (top of the series)) was inactive: 22.7%; in test [8] (at 62.6 µM (top of the series)), inactive: -19.3%. Besides, the activation in test [5] (at 62.6 µM (top of the series)) was inactive: 3.8%.

In the case of `COc1ccc([N+](=O)[O-])cc1[N+](=O)[O-]`, the activity change, negative = cytotoxicity was inactive: 1.81% in [1] (at 62.6 µM (top of the series)), inactive: -2.48% in [4] (at 62.6 µM (top of the series)) and inactive: 1.61% in test [6] (at 62.6 µM (top of the series)). For the same molecule, the Potency result in test [2] was “inactive”. For the same molecule, the viability change, negative = cytotoxic was inactive: 7.74% in test [3] (at 73.3 µM (top of the series)), inactive: -9.89% in test [7] (at 62 µM (top of the series)) and inactive: 1.72% in test [8] (at 62.6 µM (top of the series)). For the same molecule, the activation in test [5] (at 62.6 µM (top of the series)) is inactive: -0.114%.

Consider `Cc1c([N+](=O)[O-])cccc1[N+](=O)[O-]`, for which the activity change, negative = cytotoxicity was inactive: 21% and inactive: 14.3% in test [1] (at 62.6 µM (top of the series)); inactive: 0.241% and inactive: -6.34% in [4] (at 62.6 µM (top of the series)); inactive: -3.01% and inactive: 4.24% in test [6] (at 62.6 µM (top of the series)). Also, the Potency result in test [2] was “inactive”. The viability change, negative = cytotoxic is inactive: 11.1% and inactive: 2.83% in [3] (at 73.3 µM (top of the series)); inactive: 6.58% and inactive: 1.93% in [7] (at 62 µM (top of the series)); inactive: -0.88% and inactive: 6.68% in test [8] (at 62.6 µM (top of the series)). Besides, the activation was inactive: -1.84% and inactive: -1.21% in test [5] (at 62.6 µM (top of the series)); inactive: -0.653% and inactive: 0.925% in test [10]. For the same molecule, the activity change, negative = inhibition in [9] was inactive: -8.6% and inactive: 9.84%.

With `N=C(N)N[N+](=O)[O-]`, the activity change, negative = cytotoxicity in test [1] (at 81.1 µM (top of the series)) is inactive: 2.84%; in test [4] (at 81.1 µM (top of the series)), inactive: -13.6%; in [6] (at 81.1 µM (top of the series)) it was inactive: 4.18%. Moreover, the Potency entry in test [2] is “inactive”. The viability change, negative = cytotoxic was inactive: -5.72% in test [3] (at 94.8 µM (top of the series)), inactive: 19.1% in test [7] (at 80.4 µM (top of the series)) and inactive: 10.2% in test [8] (at 81.1 µM (top of the series)). Also, the activation in [5] (at 81.1 µM (top of the series)) was inactive: 0.0992%.

As for `CCOP(=O)(CC)OCC`, the figures for the activity change, negative = cytotoxicity in [1] (at 62.6 µM (top of the series)), in test [4] (at 62.6 µM (top of the series)) and in test [6] (at 62.6 µM (top of the series)) were inactive: 13.8%, inactive: 5.59% and inactive: 2.74%, respectively. Also, the Potency entry in test [2] was “inactive”. Also, the viability change, negative = cytotoxic in [3] (at 73.3 µM (top of the series)) was inactive: 2.63%; in test [7] (at 62 µM (top of the series)), inactive: 1.09%; in [8] (at 62.6 µM (top of the series)), inactive: 1.07%. Moreover, the results for the activation in test [5] (at 62.6 µM (top of the series)) and in test [10] were inactive: -0.149% and inactive: 0.988%, respectively. In [9], the activity change, negative = inhibition is inactive: 0.623%.

With `C/C1=C2N=C(/C=C3N=C(/C(C)=C4\[N-][C@@](C)([C@@H]5N=C1[C@](C)(CCC(=O)NC[C@@H](C)OP(=O)([O-])O[C@H]1[C@@H](O)[C@@H](n6cnc7cc(C)c(C)cc76)O[C@@H]1CO)[C@H]5CC(N)=O)[C@@](C)(CC(N)=O)[C@@H]4CCC(N)=O)[C@@](C)(CC(N)=O)[C@@H]\3CCC(N)=O)C(C)(C)[C@@H]/2CCC(N)=O.[C-]#N.[Co+3]`, the activity change, negative = cytotoxicity in test [1] (at 62.6 µM (top of the series)) is inactive: 14%; in test [4] (at 62.6 µM (top of the series)), inactive: 2.63%; in [6] (at 62.6 µM (top of the series)) it was inactive: -1.18%. In test [2], the Potency result is “inactive”. For the same molecule, the viability change, negative = cytotoxic in test [3] (at 73.3 µM (top of the series)) is inactive: -4.17%; in test [7] (at 62 µM (top of the series)) it was inactive: 0.826%; in test [8] (at 62.6 µM (top of the series)), inactive: -4.98%. Further, the activation in [5] (at 62.6 µM (top of the series)) was inactive: 0.349%. The activity change, negative = inhibition in test [9] is inactive: 1.11%.

For the molecule `O=[N+]([O-])c1cccc([N+](=O)[O-])c1`, the Potency in test [2] was active: 31.9 µM. In addition, the activity change, negative = cytotoxicity in [4] (at 81.1 µM (top of the series)) is inactive: -20.6%; in test [6] (at 81.1 µM (top of the series)), inactive: -12.7%.

For `Nc1cc([N+](=O)[O-])cc([N+](=O)[O-])c1O`, the activity change, negative = cytotoxicity in test [1] (at 81.1 µM (top of the series)) was inactive: 13.9%; in test [4] (at 81.1 µM (top of the series)) it was inactive: 4.49%. The viability change, negative = cytotoxic in test [3] (at 94.8 µM (top of the series)) was inactive: -10.4%; in test [7] (at 80.4 µM (top of the series)), inactive: -0.522%.
